The target in one test is recombinant human DHODH (Homo sapiens, UniProt Q02127). Put plainly: DHODH enzyme reaction inhibition test (DCIP-coupled assay). To be noted: read-out: Enzyme reaction inhibitory effect (IC50); recombinant human DHODH 0.175 μg/mL, DCIP absorbance 600 nm, 50 minutes, pH 8.0. The protocol: The DHODH enzyme assay was carried out with reference to “Benjamin Bader, Wolfgang Knecht, Markus Fries, and Monika Loffler, Expression, Purification, and Characterization of Histidine-Tagged Rat and Human Flavoenzyme Dihydroorotate Dehydrogenase, Protein Expression and Purification, 1998, 13, 414-422.”
The DHODH activity was evaluated using an enzyme assay system that is coupled with an assay in which a blue coloring agent 2,6-dichlorophenolindophenol (DCIP, available from MP Biomedicals, LLC, MP150118) is quenched. Purified recombinant human DHODH (DHODH, 31-395aa, Human, His tag, E. coli, ATGP1615) was purchased from ATGen Co. Ltd. The enzyme assay was carried out in a 384-well plate using a buffer solution containing 100 mmol/L Hepes (available from Dojindo Laboratories, 342-01375), 400 mmol/L NaCl (available from FUJIFILM Wako Pure Chemical Corporation, 191-01665), 10% Glycerol (available from FUJIFILM Wako Pure Chemical Corporation, 075-00616), 0.05% Triton X-100 (available from Sigma-Aldrich Co., LLC, T8787-100ML), 0.2 mmol/L Ubiquinone-10 (available from FUJIFILM Wako Pure Chemical Corporation, 216-00761), 0.1 mmol/L DHO (L-dihydroorotic acid, available from Sigma-Aldrich Co., LLC, D7128), 0.5% DMSO (dimethylsulfoxide, available from FUJIFILM Wako Pure Chemical Corporation, 047-29353), 0.175 μg/mL DHODH, and 0.12 mmol/L DCIP and having a pH adjusted to 8.0 by adding 5 mol/L potassium hydroxide (available from FUJIFILM Wako Pure Chemical Corporation, 168-21815). A test compound with a predetermined concentration was added using Biomek NX (available from Beckman Coulter Inc.), and the enzyme reaction was started by adding the substrate. The enzyme activity was assessed by measuring the decrease in DCIP absorbance (600 nm) for 50 minutes using an EnVision plate-reading spectrophotometer (available from PerkinElmer, Inc.).
The enzyme reaction inhibition rate at each test compound concentration was determined, and the 50% enzyme reaction inhibition concentration [IC50 (nmol/L)] was calculated using XLfit. Enzyme reaction inhibition rate (%)=(amount of luminescence in test compound-added well)/(amount of luminescence in DMSO-added well)×100
The abbreviations in the table have the following meanings. • A: IC50 value<10 nmol/L • B: 10 nmol/L≤IC50 value<100 nmol/L • C: 100 nmol/L≤IC50 value

Protein sequences, listed by entry. Tags and fused reporters are not part of them. Residues count along the entry.
UniProt Q02127, 31-395 limits assumed: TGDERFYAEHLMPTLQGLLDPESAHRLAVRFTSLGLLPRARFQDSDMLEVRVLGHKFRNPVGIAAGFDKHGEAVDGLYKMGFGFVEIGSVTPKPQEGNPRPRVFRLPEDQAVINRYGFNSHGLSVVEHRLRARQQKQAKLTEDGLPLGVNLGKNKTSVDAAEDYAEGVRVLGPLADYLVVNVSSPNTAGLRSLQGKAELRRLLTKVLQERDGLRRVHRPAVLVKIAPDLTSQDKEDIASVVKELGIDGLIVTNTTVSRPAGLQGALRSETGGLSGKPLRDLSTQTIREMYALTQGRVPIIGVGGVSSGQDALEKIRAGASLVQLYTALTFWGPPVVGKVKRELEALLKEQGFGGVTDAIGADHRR

Test [1] has as its system human myeloid leukemia cell line HL60. The experiment in a line: Cell growth test, HL60 (CellTiter-Glo). To be noted: read-out: Cell growth inhibitory effect (GI50); HL60 cells, 3 days, CellTiter-Glo luminescence. The protocol:
The cell growth test was carried out using the human myeloid leukemia cell line HL60 (available from ATCC, CRL-240). As a culture medium of HL60 cells, RPMI 1640 (available from FUJIFILM Wako Pure Chemical Corporation, 189-02025) supplemented with 10% fetal bovine serum (available from Thermo Fisher Scientific, Inc., 10437-028), and 1% penicillin-streptomycin (10,000 U/mL, available from Thermo Fisher Scientific, Inc., 15140-122) was used. HL60 cells were seeded on a 384-well plate (available from Corning Inc., 4588) at a cell density of 1×10^3 cells/20 μL/well. After culturing overnight, 5 μL of the test compound having a predetermined concentration was added, and 3 days later, 25 μL of CellTiter-Glo (registered trademark) Luminescent Cell Viability Assay (available from Promega Corporation, G7573) was added, and then the amount of luminescence was measured using an EnVision plate reader (available from PerkinElmer, Inc.). Since the amount of luminescence is proportional to the intracellular concentration of adenosine triphosphate (ATP), the amount of luminescence was used as an indicator of the number of viable cells. The growth inhibitory concentration for each test compound concentration was calculated by the following expression.
The growth inhibition rate at each test compound concentration was determined, and the 50% growth inhibitory concentration [GI50 (nmol/L)] was calculated using XLfit. Growth inhibition rate (%)=(amount of luminescence in test compound-added well)/(amount of luminescence in DMSO-added well)×100
The abbreviations in the table have the following meanings. • A: GI50 value<100 nmol/L • B: 100 nmol/L≤GI50 value<1,000 nmol/L • C: 1,000 nmol/L≤GI50 value

The test system of a further test is HL60 subcutaneous tumor. The experiment in a line: In vivo drug efficacy test in cancer-bearing mouse model with subcutaneous transplantation of HL60. To be noted: HL60 subcutaneous xenograft, female NOD/scid mice, oral 2.5 to 10 mg/kg once a day for 10 to 12 days. From the text: (Drug Efficacy Test in Cancer-Bearing Mouse Model with Subcutaneous Transplantation of HL60)
The human acute myeloid leukemia cell line HL60 (available from JCRB) was suspended in a mixture of RPMI-1640 culture medium and Matrigel (available from Corning Inc.), and then subcutaneously transplanted into 6-week-old female NOD/scid mice (available from CLEA Japan, Inc.). The test compound was dispersed in a solvent (0.5% aqueous methylcellulose solution), and from the time when tumor engraftment was visually confirmed, the test compound was orally administered to mice at a dose of 2.5 to 10 mg/kg once a day for 10 to 12 days. A solvent administration group to which a 0.5% aqueous methylcellulose solution was administered was provided as a negative control. The tumor diameter was measured over time and the tumor volume was calculated. The tumor volume was calculated by measuring the major axis and the minor axis of the tumor and using the following expression. Tumor volume (mm^3)=[major axis (mm)×minor axis (mm)×minor axis (mm)]/2
T/C (%) was calculated from the average tumor volume of each group by the following expression, and the drug efficacy was evaluated. T/C (%)=(average tumor volume of drug-administered group)/(average tumor volume of solvent-administered group)×100%

Each structure is given as a SMILES string. A value given as a limit tells only on which side of the number the result lay.

On to `O=C(O)c1cc(C2CC2)cnc1Nc1cccc(C2CCOCC2)c1OCC(F)(F)F`, for which the IC50 (in general, the concentration at which inhibition is half-maximal) on recombinant human DHODH was below 10 nM. In test [1], the GI50 (commonly the concentration at which growth is held to half of that of the control) is below 100 nM.
`CS(=O)(=O)NC(=O)c1nc(C2CC2)cnc1Nc1cc(F)cc(C2=CCOCC2)c1OCC(F)(F)F`: the IC50 on recombinant human DHODH is below 10 nM. In test [1], the GI50 is below 100 nM.
Taken in the same sequence, the figures for `CCCc1c(Nc2ncc(C3CC3)nc2C(=O)NS(C)(=O)=O)cccc1C1CCOCC1` were below 10 nM and below 100 nM.
`CS(=O)(=O)NC(=O)c1nc(C2CC2)cnc1Nc1cc(F)cc(C2CCOCC2)c1OC(F)F`: the “tumor growth inhibition rate (T/C from tumor volume)” value in the test on HL60 subcutaneous tumor was “excellent tumor growth inhibition rate”. Moreover, on recombinant human DHODH, the IC50 was below 10 nM. Moreover, the GI50 in test [1] is below 100 nM.
For `CS(=O)(=O)NC(=O)c1cc(C2CC2)cnc1Nc1cc(F)cc(C2CCOCC2)c1OC(F)F`, the IC50 at recombinant human DHODH is below 10 nM. The GI50 in test [1] was below 100 nM.
On to `CCCc1c(Nc2ncc(C3CC3)nc2C(=O)NOC)cccc1C1CCOCC1`, for which the IC50 at recombinant human DHODH was below 10 nM. Further, in test [1], the GI50 is below 100 nM.
As for `C[C@H](Oc1c(Nc2nnc(C3CC3)cc2C(=O)O)cccc1C1CCOCC1)C(F)(F)F`, on recombinant human DHODH, the IC50 is below 10 nM. Besides, the GI50 in test [1] is above 1000 nM.

Source of the values: patent publication US12637435B2, “Nitrogen-containing heterocyclic compound or salt thereof, use thereof, and intermediate thereof” (FUJIFILM Corporation, priority 2020, dated 2026).
